The results in this text go back to US7279597B1, “Phenyl amine carboxylic acid compounds and compositions for delivering active agents” (Emisphere Technologies, Inc., priority 1999, dated 2007).

Data set [1] in a line: Insulin pulmonary delivery, serum insulin by ELISA. Particulars: rats, control group dosed insulin alone, insulin 0.03 mg/kg, 0.4 ml/kg. How it is done: (§1) The typical dosing and sampling protocols were as follows.
(§2) Serum insulin levels were determined with an Insulin ELISA Test Kit (Kit # DSL-10-1600 from Diagnostic Systems Laboratories, Inc., Webster, Tex.), modifying the standard protocol in order to optimize the sensitivity and linear range of the standard curve for the volumes and concentrations of the samples used in the present protocol. […] The five values for each time point were averaged and the results plotted as serum insulin concentration versus time.
For orientation: ELISA stands for enzyme-linked immunosorbent assay.

Data set [2] in a line: Insulin oral delivery, serum human insulin by ELISA. Conditions: previous experiments. The method, then:
The pH was adjusted to about 7 to 8.5 with NaOH or HCl. […] About 1.25 mg insulin from an insulin stock solution (15 mg/ml made from 0.5409 g insulin and 18 ml deionized water, adjusting with HCl and NaOH to pH 8.15 and to obtain a clear solution using 40 ml concentrated HCl, 25 ml 10N NaOH and 50 ml 1N NaOH) was added to the solution and mixed by inverting.
as §1, §2

In the case of human insulin, the “Cmax (Control), serum insulin” value in data set [1] is given as 5.46 μU/ml. Besides, the “levels of human insulin following oral dosing with human insulin alone” value in data set [2] is reported as “no measurable levels”.
